Test [1] addresses T1, IDH-NAD (Rattus norvegicus, UniProt Q99NA5).
T1 construct: stored at -70°C until use for determination of enzyme activities and Western blotting; from tissue; host or cells: mitochondria isolated from rat liver (RLM), solubilised with 0.02% Triton X-100
T1 sequence (Q99NA5 28-366): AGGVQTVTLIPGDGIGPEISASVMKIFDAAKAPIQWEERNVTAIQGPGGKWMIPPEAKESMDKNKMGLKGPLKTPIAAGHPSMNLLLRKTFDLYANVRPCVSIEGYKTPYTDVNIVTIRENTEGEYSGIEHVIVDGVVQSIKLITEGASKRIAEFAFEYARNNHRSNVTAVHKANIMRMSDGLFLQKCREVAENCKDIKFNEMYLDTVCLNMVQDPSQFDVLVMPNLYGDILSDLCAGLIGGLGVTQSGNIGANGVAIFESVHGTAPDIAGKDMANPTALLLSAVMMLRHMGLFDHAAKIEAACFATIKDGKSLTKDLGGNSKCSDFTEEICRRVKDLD
T1 sequence (Q68FX0 35-385 partner): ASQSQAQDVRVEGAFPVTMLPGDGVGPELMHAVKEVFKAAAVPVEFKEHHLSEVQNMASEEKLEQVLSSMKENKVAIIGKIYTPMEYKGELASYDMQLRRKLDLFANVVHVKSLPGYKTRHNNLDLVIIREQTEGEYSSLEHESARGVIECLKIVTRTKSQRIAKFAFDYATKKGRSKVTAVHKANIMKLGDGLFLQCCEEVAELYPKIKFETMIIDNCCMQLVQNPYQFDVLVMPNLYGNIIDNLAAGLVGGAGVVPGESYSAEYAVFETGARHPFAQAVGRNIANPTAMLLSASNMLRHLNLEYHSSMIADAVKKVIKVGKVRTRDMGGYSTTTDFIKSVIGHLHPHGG
T1 sequence (P41565 40-393 partner): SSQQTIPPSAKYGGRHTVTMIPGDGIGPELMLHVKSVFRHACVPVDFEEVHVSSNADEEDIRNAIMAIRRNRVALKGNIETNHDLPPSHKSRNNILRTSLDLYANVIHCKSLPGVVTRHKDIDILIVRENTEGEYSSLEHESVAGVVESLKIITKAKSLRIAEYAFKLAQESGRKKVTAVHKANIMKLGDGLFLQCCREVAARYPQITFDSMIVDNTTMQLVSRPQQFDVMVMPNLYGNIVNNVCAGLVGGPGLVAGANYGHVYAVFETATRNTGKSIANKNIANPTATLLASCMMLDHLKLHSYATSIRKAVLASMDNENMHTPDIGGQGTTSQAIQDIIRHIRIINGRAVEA
The test is described as follows: IDH-NAD enzyme kinetics in AS-30D hepatoma mitochondria (HepM). In kind it is biochemical. To be noted: 37°C. Here is the method:
(§1) Rat liver (RLM), rat heart (RHM) and AS-30D rat hepatoma (HepM) mitochondria were prepared as previously described ([20]–[22]). All animals were manipulated according to the guidelines NOM-062-ZOO-1999 (Norma Oficial Mexicana) for the care and use of laboratory animals, and the project received approval from the Internal Committee for the Care and Use of Laboratory Animals (CICUAL) with number INC/CICUAL/004/2021 from Instituto Nacional de Cardiología Ignacio Chávez. […]
(§2) The mitochondrial activities of ACO, IDH-^NAD, IDH-^NADP, 2OGDH, SDH, FH, MDH, Aspartate aminotransferase (AST), ME, glutamate dehydrogenase (GDH), alanine aminotransferase (ALT) and PDH were determined spectrophotometrically at 340 nm ([13], [25]) and 37°C, except where indicated. […]
(§3) CS activity was determined as CoA liberation by its thiol reaction with DTNB monitored at 412 nm ([13], [25]); the standard assay contained 0.1 mM DTNB, 0.003-0.3 mM AcCoA, 0.005-0.2 mM OAA (freshly prepared) and 0.003-0.006 mg of mitochondrial protein. […] IDH^-NADP activity was determined with 0.01-1 mM NADP^+, 0.1 mM MgCl2, 0.015-1.5 mM DL-Iso and 0.1-0.2 mg of mitochondrial protein. […] SDH assay contained 0.075 mM DCPIP, 0.4 mM PMS, 0.1-10 mM Suc and 0.025-0.12 mg of protein; the reaction was monitored at 600 nm. […]

Test [2] concerns the target T1, IDH-NAD. The test is described as follows: IDH-NAD enzyme kinetics in rat liver mitochondria (RLM). In kind it is biochemical. To be noted: 37°C. The procedure:
as §1, §2, §3

Where [3] appears, read: pH 7.20, read-out: Ki NADH vs Iso.
Setting [4] is: pH 7.20, read-out: Ki NADH vs NAD+.

This note sets out measurements from publication PMC11979947, “Modeling Krebs cycle from liver, heart and hepatoma mitochondria, supported Complex I as target for specific inhibition of cancer cell proliferation” (Frontiers in Oncology, 2025).

By Ki is commonly meant the equilibrium dissociation constant of an inhibitor or competing ligand from its target.

NADH: the inhibition constant (Ki) on IDH-NAD [1] (setting [3]) is 40 ± 8 µM; at IDH-NAD [1] (setting [4]) it was 80 ± 10 µM; at IDH-NAD [2] (setting [3]) it was 30 ± 17 µM; on IDH-NAD [2] (setting [4]) it was 50 ± 20 µM.
